Measurements taken from patent US20080274913A1, “Multiplex Array Useful for Assaying Protein-Protein Interaction” (priority 2005, published 2008).

The chains behind the UniProt entries cited, without tags or fusion partners.
UniProt P08908, whole entry: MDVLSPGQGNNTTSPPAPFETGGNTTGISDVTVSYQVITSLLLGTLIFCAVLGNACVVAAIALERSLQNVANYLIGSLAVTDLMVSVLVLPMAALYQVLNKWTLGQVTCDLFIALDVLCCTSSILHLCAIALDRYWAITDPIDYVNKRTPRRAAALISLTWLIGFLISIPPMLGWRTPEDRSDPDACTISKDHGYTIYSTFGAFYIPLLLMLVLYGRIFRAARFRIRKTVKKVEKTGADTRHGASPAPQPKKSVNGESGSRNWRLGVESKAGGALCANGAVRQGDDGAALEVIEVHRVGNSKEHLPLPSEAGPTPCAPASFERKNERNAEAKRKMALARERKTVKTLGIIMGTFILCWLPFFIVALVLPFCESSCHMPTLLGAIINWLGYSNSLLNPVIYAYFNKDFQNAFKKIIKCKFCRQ
UniProt P08172, whole entry: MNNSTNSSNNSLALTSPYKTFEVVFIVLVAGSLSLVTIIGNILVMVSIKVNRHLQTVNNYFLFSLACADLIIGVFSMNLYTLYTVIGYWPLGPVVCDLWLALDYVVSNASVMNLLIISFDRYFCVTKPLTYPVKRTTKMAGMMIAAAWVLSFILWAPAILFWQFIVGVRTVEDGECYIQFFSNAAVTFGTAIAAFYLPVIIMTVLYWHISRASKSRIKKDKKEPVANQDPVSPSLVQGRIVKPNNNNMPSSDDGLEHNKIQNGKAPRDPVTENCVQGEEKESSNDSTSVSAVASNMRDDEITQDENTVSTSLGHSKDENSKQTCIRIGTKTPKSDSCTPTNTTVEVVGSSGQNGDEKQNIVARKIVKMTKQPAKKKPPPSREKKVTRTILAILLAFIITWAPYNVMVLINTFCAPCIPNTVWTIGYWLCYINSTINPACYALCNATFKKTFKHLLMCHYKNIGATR

What was measured:
Format in all cases: cell-based
[1] = target: epidermal growth factor receptor (EGFR) (Homo sapiens, UniProt P00533); assay: EGFR-tTA / PLC Gamma1-TEV luciferase reporter assay in HTL5B8.1 cells; conditions: 70 μM AG-494; 0.3 μM AG-1478; 2 mM RG-130022
[2] = target: serotonin receptor 1a (HTR1A) (Homo sapiens, UniProt P08908); conditions: 10 μM; low efficiency cleavage site
[3] = target: T1, m2 muscarinic acetylcholine receptor (CHRM2) (Homo sapiens, UniProt P08172); conditions: 10 μM; high efficiency cleavage site; ARRB2-protease under HSV-TK promoter
T1 construct: expressed in transfected cells; host or cells: clone 41 (HEK-293T derivative)

[4] = target: T2, human Type I Interferon Receptor (Homo sapiens, UniProt P17181+P48551); assay: IFNAR1-tTA / IFNAR2.2-TEV luciferase reporter assay in HTL5B8.1 cells; conditions: 5000 U/ml, 18-20 hours
T2 sequence (P17181 28-557): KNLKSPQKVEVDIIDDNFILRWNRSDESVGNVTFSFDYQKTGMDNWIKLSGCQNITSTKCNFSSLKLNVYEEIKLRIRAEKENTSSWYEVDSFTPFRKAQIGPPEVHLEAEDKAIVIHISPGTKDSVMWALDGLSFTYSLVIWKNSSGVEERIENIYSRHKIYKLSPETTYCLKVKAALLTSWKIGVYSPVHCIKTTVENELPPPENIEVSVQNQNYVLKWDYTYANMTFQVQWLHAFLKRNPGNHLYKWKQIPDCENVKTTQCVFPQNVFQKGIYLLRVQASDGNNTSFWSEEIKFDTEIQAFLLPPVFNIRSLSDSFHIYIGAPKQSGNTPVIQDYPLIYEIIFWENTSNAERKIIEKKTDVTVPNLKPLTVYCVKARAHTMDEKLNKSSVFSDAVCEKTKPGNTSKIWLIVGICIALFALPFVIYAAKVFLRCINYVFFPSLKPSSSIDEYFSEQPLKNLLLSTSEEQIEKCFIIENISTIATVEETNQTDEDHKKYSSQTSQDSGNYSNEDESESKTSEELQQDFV
T2 sequence (P48551 27-515): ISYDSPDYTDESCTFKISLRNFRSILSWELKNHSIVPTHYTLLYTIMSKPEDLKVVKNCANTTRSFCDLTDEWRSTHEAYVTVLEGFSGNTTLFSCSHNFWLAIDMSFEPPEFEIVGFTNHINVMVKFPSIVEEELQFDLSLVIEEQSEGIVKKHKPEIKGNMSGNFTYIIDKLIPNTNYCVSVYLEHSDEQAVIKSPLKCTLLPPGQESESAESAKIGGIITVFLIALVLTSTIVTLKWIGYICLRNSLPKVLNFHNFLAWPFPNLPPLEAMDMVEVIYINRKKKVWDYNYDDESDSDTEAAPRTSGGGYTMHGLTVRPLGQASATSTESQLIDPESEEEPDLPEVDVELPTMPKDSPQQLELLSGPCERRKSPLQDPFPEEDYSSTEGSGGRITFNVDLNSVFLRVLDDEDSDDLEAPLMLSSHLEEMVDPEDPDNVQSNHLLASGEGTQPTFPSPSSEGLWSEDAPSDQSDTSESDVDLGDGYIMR

COc1cc2ncnc(Nc3cccc(Cl)c3)c2cc1OC [AG-1478]
induction of reporter gene activity by human Epidermal Growth Factor after prior treatment with tyrosine kinase inhibitor [1]: blocked the induction of reporter gene activity

Br.CCCN(CCC)C1CCc2cccc(O)c2C1 (stereo not shown) [OH-DPAT, 8-hydroxy-DPAT HBr]
maximal response, induction of reporter gene expression over background level [2]: 6.3 fold

C[N+](C)(C)CCOC(N)=O.[Cl-] [carbochol, carbamylcholine Cl]
maximal response, induction of reporter gene expression over background [3]: 7.2 fold

IFN-β: human interferon-beta
increase in reporter gene activity [4]: 10 fold
